Assay: Solubility of compound (B) in solvent (solid content of saturated solution)

Row | Substance | solubility in solvent (solvent: hexane) [wt %] | solubility in solvent (solvent: water) | solubility in solvent (solvent: 1-propanol) [wt %] | solubility in solvent (solvent: EtOH (ethanol)) [wt %] | solubility in solvent (solvent: IPA (isopropyl alcohol)) [wt %] | solubility in solvent (solvent: n-butanol) [wt %]
1 | dipentaerythritol hexa(meth)acrylate | 0.3 | less than 0.1 wt % | – | – | – | –
2 | tricyclodecanediyldimethanol di(meth)acrylate | – | less than 0.1 wt % | – | – | – | –
3 | trimethylolpropane tri(meth)acrylate | – | less than 0.1 wt % | – | – | – | –
4 | tris(2-hydroxyethyl)isocyanurate tri(meth)acrylate | – | 1 wt % | 8 | 2 | 7 | 6
